System: SKOV3 ovarian cells
Test: Cytotoxicity of ADCs against SKOV3 cell lines (viable cells by ATP content, CellTiter-Glo)
Type: cell-based
Conditions: SKOV3 ovarian cancer cells, 3 to 5 days incubation with ADC, % survival curve fit
Experimental: The cytotoxic activity of Trastuzumab ADCs of Formula (IV) was tested against SKOV3 ovarian cell lines
SKOV3 ovarian cells were incubated with the effectors for a period corresponding to 2 to 3 times their estimated doubling time and the amount of viable cells was determine by measuring ATP content in the wells. ATP has been widely accepted as a valid marker of viable cells. When cells lose membrane integrity, they lose the ability to synthesize ATP and endogenous ATPases rapidly deplete any remaining ATP from the cytoplasm. All ADCs were diluted in DPBS to 6× the highest concentration tested, followed by 10 3-fold serial dilutions in DPBS for a total of 11 concentration points. Each point was added to triplicate wells. DPBS was added in wells to measure the maximum growth. […] Total ATP was measured using CellTiter-Glo™ reagent from Promega as recommended by the supplier. […] Signal output was measured on a luminescence plate reader (Envision™, Perkin Elmer) set at an integration time of 0.1 sec. […]
Each concentration point (S) was normalized to the negative control wells (NC) and expressed as % survival (NC-S/NC×100). Potency (IC50) and efficacy were calculated from a non-linear curve fit of the points versus log of the concentrations without constrain on the slope. Refined data were analysed using Prism™ software. […]

Substance: Trastuzumab-SMCC-DM1
- IC50: 0.587 nM

Reference: patent publication US20220267281A1, “UNSATURATED HETEROCYCLOALKYL AND HETEROAROMATIC ACYL HYDRAZONE LINKERS, METHODS AND USES THEREOF” (priority 2019, published 2022)
